“Also recorded” adds a separate entry of the source. Marks after values point to notes of the source that are not given here.
Legend:
[1] = In vitro plasma and serum stability, rabbit; type: in vitro ADME; conditions: 37°C
Description: (§1) The stability of peptides is analysed in serum and plasma. The peptides are incubated at 37°C in plasma or serum and samples taken at approx. 9 regular intervals between t=0 and t=156 min are analysed by HPLC.
(§2) This is done by subsequent injections of the drug, plasma, and a co-injection with the drug and the plasma, followed by optimisation of the LC method parameters until a satisfactory separation is obtained. Three parallel experiments are performed for each plasma type.100 ml of peptide is mixed with 900 ml plasma at t = 0 and incubated at 37°C (drug-plasma mixture conc. 0.1 mg/ml). Samples of 100 ml of the drug-plasma mixture are removed at appropriate intervals and the degradation stopped by precipitation of the sample with 10 ml MeCN:TFA 50:50 v/v. A control plasma sample without the drug treated in the same manner is also taken. The plasma samples are centrifuged for 15 min. at 12,000 rpm (Eppendorf centrifuge) at ambient temperature. The resulting supernatant solution is transferred to 300 ml HP autosamler vials and analyzed by HPLC. The samples are analyzed in the following order: blank, the peptide at 0.1 mg/mL, the plasma without the peptide, the three parallel samples for t = 0, the three parallel samples for t = 5 min. the three parallel samples for t = 10 min. etc. And finally the three parallel samples for t = 0 are repeated to make sure that there have been no degradation or other failure during the analyses. The sample concentrations (peak height in mAU) are plotted vs. time and fitted to a function describing a mono exponential decay (Excel). […] Table 7. Results of in vitro stability test in plasma and serum, T1/2 in min and hrs

[2] = system: excisional wounds; assay: Excisional wound healing in mice (planned); type: in vivo; conditions: topically or parenterally, 5 days
Description: To examine wound healing in vivo, Compound 2 and Compound 40 is administered topically (concentration range 10-9 - 10-6 mol/l in aqueous gel) and parenterally (10-10 - 10-6 mol/kg) two to four times daily to mice. Two round excisional wounds are created down the panniculus camosus with a 6-mm punch biopsy on the back skin of each mouse. After 5 days treatment with compound 2 and compound 40 the effect of skin is evaluated histologically by microscopy of biopsies and wound healing is measured by daily measurements of the diameter of the wound.

[3] = Stability in acidic solution (statement only); type: physicochemical
[4] = In vitro plasma and serum stability, human; type: in vitro ADME; conditions: for T1/2 PLASMA, HEPARIN HUMAN / T1/2 SERUM HUMAN: 37°C
Description: as §1, §2

[5] = system: GJIC in cardiomyocytes; assay: Patch clamp measurement of intercellular conductance (Gj) between cardiomyocyte pairs; type: cell-based, guinea pig; conditions: 10^-8 M, steady-state after about 400 seconds of stimulation, five experiments
[6] = system: ventricular reentry arrhytmias; assay: Ventricular reentry arrhythmias in dogs after coronary artery occlusion; type: in vivo
Description: Three dogs were studied in the anesthetized, open chest state to facilitate electrode placement for mapping. α-chloralose was given as a bolus (200 mg/kg) and then a constant Infusion at 8 mg/kg/hr (dissolved in polyethylene glycol, MW=200). The femoral vein and artery was cannulated for administration of fluid and drugs and for measurement of ascending aortic pressure, respectively.
The sinus node was clamped and the atrial appendage was paced with a programmable stimulator with constant current outputs at two times diastolic threshold. Pacing rate was ≥200 b/min to control heart rates. […] Endocardial Effective Refractory Period (ERP) was measured by the standard extrastimulus technique. Late ventricular diastolic threshold was measured during each intervention; the pacing current was four times threshold.
Test sites were chosen along the shaft of 16 pole needles (J. Kassell, Fayetteville, NC); each pole completely surrounds the needle shaft to prevent directionality of needle orientation from recording of adjacent Purkinje strands. Six bipolar electrograms (1 mm spacing) were recorded sequentially down the shaft of the needle by amplifying up to 1000 times, filtering from 3-1300 Hz and recording via oscilloscope during atrial pacing. Four intramural electrograms are recorded on each multipolar needle. […]

[7] = In vitro plasma stability, rat; type: in vitro ADME; conditions: 37°C
Description: as §1
This is done by subsequent injections of the drug, plasma, and a co-injection with the drug and the plasma, followed by optimisation of the LC method parameters until a satisfactory separation is obtained. Three parallel experiments are performed for each plasma type.[…] at t = 0 and incubated at 37°C (drug-plasma mixture conc. 0.1 mg/ml). Samples of 100 ml of the drug-plasma mixture are removed at appropriate intervals and the degradation stopped by precipitation of the sample with 10 ml MeCN:TFA 50:50 v/v. A control plasma sample without the drug treated in the same manner is also taken. The plasma samples are centrifuged for 15 min. at 12,000 rpm (Eppendorf centrifuge) at ambient temperature. The resulting supernatant solution is transferred to 300 ml HP autosamler vials and analyzed by HPLC. The samples are analyzed in the following order: blank, the peptide at 0.1 mg/mL, the plasma without the peptide, the three parallel samples for t = 0, the three parallel samples for t = 5 min. the three parallel samples for t = 10 min. etc. […]

| Substance | T1/2 PLASMA, HEPARIN RABBIT [1] | Human plasma half life [4] [h] | other results |
| --- | --- | --- | --- |
| 3-(4-hyd roxyphenyl)propionyl-Pro-Hyp-Gly-Ala-Gly-OH [HP5, reference compound] | 3.7 min ±1% | – | – |
| Ac-D-Tyr-D-Pro-D-4Hyp-Gly-D-Ala-Gly-NH2 [Compound 2] | * > 5 hrs | >5 | skin structure [2]: will not affect skin structure alone; stability in acidic solution [3]: stable in acidic solution; T1/2 PLASMA, HEPARIN HUMAN [4]: * > 5 hrs; T1/2 SERUM HUMAN [4]: * > 5 hrs; stability in plasma and serum compared with AAP10 ([4]; plasma and serum): considerably more stable; ΔGj (relative change of intercellular conductance) [5]: +120 ± 46%; Effective refractory period ([6]; second dog, second site of induction (septal), throughout the testing period): 144 ms; mean arterial pressure (MAP) ([6]; three incremental IV doses): did not alter; also recorded: no change |
| AcGNY | – | 35.67 | – |
| CF3C(O)-AAP10-NH2 | 3.8 hrs ± 0.5% | 4 | T1/2 SERUM HUMAN [4]: 3.1 hrs ± 10% |
| Cyclo(retro-AAP-10-Asn) | * BR > 5 hrs | >5 | T1/2 SERUM HUMAN [4]: * > 5 hrs |
| GNY | – | 1.05 | – |
| H-AAP-10-K6-OH | – | – | Human plasma half life, min. ([4]; measured in EDTA plasma): 87* min. |
| H-DY-DN-G-NH2 | – | 4.93 | T1/2 PLASMA, HEPARIN HUMAN [4]: 296min ± 34% |
| H-Gly-Ala-Gly-Hyp-Pro-Tyr-NH2 [AAP10, reference compound] | 9.5 min ±12% | 0.217 | T1/2 SERUM RABBIT ([1]; serum): 2.7 min ± 4%; T1/2 PLASMA, HEPARIN RAT [7]: 8.2 min ± 13%; half life ([4]; plasma and serum): less than 10 minutes |
| H-Gly-Pro-Hyp-Gly-Ala-Gly-OH [AAP, reference compound] | 4.4 min ±12% | 0.13 | T1/2 PLASMA, HEPARIN HUMAN [4]: 7.6 min ±6% |
| HPP-PHypGAGKKKKKK-NH2 | – | >5 | – |
| HPP-PHypGAGKKKKKK-OH | – | 0.033 | – |
| [Pro^4]AAP10-NH2 | – | 0.083 | – |
| des-Hyp^4-[Asn^5]AAP-10-NH2 | – | 0.12 | – |

From patent EP1370276B1, “INTERCELLULAR COMMUNICATION FACILITATING COMPOUNDS AND THEIR MEDICAL USE” (Zealand Pharma A/S, priority 2001, dated 2002)
